From paper PMC10350917, “Synthesis of a Novel Boronic Acid Transition State Inhibitor, MB076: A Heterocyclic Triazole Effectively Inhibits Acinetobacter-Derived Cephalosporinase Variants with an Expanded-Substrate Spectrum” (Journal of Medicinal Chemistry, 2023)

Test system: CO/N=C(\C(=O)N[C@@H]1C(=O)N2C(C(=O)O)=C(COC(C)=O)CS[C@H]12)c1csc(N)n1
Assay: purified protein, by the assay type
Settings: 50 mM NaH2PO4 pH 7.4, room temperature

For ADC-7 (Acinetobacter baumannii), the Km (other: ADC-7, substrate) was 1.23 µM, the kcat (other: ADC-7, substrate) was 0.0475 ± 0.0012 s⁻¹ and the kcat/Km (other: ADC-7, substrate) was 38600 ± 6300 M⁻¹ s⁻¹.

Work on ADC-30 (Acinetobacter baumannii) yielded a Km (other: ADC-30, substrate) of 4.35 µM, a kcat (other: ADC-30, substrate) of 0.117 ± 0.009 s⁻¹ and a kcat/Km (other: ADC-30, substrate) of 27000 ± 13000 M⁻¹ s⁻¹.

Substance ADC-162 (Acinetobacter baumannii) has a Km (other: ADC-162, substrate) of 115.2 ± 15.5 µM, a kcat (other: ADC-162, substrate) of 25.4 ± 1.4 s⁻¹ and a kcat/Km (other: ADC-162, substrate) of 220000 ± 42000 M⁻¹ s⁻¹.

With ADC-33 (Acinetobacter baumannii) the Km (other: ADC-33, substrate) was 7.11 µM, the kcat (other: ADC-33, substrate) was 0.463 ± 0.014 s⁻¹ and the kcat/Km (other: ADC-33, substrate) was 63000 ± 10000 M⁻¹ s⁻¹.
